Data as given in ChEMBL document CHEMBL5316381, “Discovery of [1,2,3]Triazolo[4,5-c]quinoline Derivatives as a New Class of Ataxia-Telangiectasia Mutated Kinase Inhibitors” (ACS Med Chem Lett, 2023).

By UniProt entry, the sequences of proteins in these tests, tags left out. Where a name states a change or a piece, a line headed by the entry shows the natural chain unless it says otherwise.
UniProt O96017, whole entry: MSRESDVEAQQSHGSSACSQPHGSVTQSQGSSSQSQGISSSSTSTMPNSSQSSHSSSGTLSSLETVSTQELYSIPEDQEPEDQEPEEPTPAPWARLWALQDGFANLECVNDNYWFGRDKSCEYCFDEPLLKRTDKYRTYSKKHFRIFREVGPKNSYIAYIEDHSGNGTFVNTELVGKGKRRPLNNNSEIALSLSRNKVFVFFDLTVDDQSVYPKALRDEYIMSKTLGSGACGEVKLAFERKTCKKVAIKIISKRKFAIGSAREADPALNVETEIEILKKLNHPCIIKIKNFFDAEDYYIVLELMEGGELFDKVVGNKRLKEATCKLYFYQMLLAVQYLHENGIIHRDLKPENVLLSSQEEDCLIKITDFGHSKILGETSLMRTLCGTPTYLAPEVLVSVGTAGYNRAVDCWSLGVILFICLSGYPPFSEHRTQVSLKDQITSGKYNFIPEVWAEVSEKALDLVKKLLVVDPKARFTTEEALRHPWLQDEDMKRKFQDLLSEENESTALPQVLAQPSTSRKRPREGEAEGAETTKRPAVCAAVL
UniProt Q13315: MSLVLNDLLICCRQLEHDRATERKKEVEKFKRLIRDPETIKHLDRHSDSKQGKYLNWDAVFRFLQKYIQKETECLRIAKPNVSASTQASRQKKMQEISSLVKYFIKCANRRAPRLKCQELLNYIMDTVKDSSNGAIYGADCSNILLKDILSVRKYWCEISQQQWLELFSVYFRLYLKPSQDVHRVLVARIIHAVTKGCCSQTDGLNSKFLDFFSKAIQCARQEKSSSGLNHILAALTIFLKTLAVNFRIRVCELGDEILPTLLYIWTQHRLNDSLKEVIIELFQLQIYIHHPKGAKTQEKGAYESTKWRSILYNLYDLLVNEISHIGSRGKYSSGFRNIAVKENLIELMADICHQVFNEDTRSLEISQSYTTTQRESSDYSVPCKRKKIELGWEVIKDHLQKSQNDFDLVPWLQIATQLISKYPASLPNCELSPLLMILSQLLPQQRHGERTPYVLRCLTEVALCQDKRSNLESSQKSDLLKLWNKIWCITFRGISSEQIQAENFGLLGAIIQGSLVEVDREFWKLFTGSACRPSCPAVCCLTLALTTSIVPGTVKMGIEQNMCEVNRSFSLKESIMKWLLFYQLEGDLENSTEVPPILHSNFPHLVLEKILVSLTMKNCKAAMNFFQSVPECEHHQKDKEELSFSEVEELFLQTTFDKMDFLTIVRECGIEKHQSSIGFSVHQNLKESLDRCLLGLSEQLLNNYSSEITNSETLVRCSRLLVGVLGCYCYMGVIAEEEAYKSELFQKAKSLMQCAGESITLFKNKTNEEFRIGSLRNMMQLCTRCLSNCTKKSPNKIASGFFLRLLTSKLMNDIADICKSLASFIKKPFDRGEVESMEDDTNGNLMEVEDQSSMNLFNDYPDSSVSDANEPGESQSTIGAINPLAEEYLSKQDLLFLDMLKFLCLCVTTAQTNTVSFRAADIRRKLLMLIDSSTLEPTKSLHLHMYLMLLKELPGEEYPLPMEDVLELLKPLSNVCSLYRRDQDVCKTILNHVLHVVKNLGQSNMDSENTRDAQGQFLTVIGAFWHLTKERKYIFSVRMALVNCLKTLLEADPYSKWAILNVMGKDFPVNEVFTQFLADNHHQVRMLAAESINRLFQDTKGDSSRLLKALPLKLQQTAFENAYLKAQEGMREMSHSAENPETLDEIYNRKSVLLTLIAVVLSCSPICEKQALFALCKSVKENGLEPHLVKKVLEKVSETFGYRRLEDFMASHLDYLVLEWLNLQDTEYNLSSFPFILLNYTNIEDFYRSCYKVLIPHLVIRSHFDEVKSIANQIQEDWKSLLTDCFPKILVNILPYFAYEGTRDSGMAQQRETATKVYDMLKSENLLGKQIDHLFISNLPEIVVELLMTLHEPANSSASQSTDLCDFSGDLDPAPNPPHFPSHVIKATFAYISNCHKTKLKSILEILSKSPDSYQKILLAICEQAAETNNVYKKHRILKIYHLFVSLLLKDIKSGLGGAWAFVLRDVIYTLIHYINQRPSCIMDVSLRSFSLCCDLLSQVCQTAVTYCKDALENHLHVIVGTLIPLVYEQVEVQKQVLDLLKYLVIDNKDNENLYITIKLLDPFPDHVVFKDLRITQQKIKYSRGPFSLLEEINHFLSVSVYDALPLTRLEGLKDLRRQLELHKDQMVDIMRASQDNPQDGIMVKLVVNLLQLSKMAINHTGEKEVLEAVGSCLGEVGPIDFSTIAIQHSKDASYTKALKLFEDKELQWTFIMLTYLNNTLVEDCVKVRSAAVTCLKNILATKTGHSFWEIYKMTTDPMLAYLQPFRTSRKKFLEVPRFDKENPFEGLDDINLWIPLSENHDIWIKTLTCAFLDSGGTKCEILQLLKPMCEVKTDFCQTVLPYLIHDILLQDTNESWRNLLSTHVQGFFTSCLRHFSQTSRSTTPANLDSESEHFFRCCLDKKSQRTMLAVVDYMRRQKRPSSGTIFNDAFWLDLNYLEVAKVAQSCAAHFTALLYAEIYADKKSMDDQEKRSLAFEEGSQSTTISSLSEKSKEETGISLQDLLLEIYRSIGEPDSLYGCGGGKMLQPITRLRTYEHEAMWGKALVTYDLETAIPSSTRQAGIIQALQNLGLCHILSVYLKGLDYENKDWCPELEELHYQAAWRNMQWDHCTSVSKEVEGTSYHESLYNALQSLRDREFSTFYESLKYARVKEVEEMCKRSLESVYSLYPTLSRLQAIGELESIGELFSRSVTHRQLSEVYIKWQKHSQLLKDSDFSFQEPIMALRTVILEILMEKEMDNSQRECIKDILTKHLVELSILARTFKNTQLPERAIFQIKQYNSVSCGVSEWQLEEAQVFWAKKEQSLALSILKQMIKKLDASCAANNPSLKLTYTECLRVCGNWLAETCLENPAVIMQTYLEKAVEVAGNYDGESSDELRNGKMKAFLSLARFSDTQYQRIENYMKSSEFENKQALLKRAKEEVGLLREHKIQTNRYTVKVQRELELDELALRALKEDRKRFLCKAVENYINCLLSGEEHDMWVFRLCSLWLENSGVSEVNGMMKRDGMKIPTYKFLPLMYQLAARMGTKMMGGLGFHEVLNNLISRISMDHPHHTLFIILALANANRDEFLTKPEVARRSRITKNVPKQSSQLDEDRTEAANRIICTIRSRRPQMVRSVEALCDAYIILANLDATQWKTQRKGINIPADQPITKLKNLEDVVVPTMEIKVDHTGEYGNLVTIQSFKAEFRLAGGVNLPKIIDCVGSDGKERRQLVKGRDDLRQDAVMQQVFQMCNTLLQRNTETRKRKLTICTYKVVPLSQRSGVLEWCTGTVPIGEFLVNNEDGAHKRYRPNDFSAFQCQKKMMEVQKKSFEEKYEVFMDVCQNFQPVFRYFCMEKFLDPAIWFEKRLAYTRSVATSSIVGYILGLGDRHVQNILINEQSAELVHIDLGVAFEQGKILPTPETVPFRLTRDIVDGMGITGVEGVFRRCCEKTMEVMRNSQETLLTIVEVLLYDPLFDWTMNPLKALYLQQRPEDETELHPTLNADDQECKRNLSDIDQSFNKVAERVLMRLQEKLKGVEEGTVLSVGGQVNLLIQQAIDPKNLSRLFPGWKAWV

Experiments:
Assay type in all cases: cell-based
[1] = biological target: Serine/threonine-protein kinase Chk2 (Homo sapiens) (UniProt O96017); assay: Inhibition of Chk2 phosphorylation in human SW620 cells with IR-induced DNA damage assessed as fold change in phosphorylated Chk2 protein level at 9 nM in the presence of 3 Gy irradiation by Western blot analysis relative to control
[2] = biological target: T1, Serine-protein kinase ATM (Homo sapiens, UniProt Q13315); assay: Inhibition of ATM phosphorylation in human SW620 cells with IR-induced DNA damage assessed as fold change in phosphorylated ATM protein level at 9 nM in the presence of 3 Gy irradiation by Western blot analysis relative to control
[3] = biological target: Serine/threonine-protein kinase Chk2 (Homo sapiens) (UniProt O96017); assay: Inhibition of Chk2 phosphorylation in human SW620 cells with IR-induced DNA damage assessed as fold change in phosphorylated Chk2 protein level at 250 nM in the presence of 3 Gy irradiation by Western blot analysis relative to control
[4] = biological target: Serine/threonine-protein kinase Chk2 (Homo sapiens) (UniProt O96017); assay: Inhibition of CPT-11 induced Chk2 phosphorylation in human SW620 cells assessed as fold change in phosphorylated chk2 protein level at 1 nM by SDS-PAGE based Western blot analysis relative to control
[5] = biological target: T1, Serine-protein kinase ATM; assay: Inhibition of ATM phosphorylation in human SW620 cells with IR-induced DNA damage assessed as fold change in phosphorylated ATM protein level at 27 nM in the presence of 3 Gy irradiation by Western blot analysis relative to control
[6] = biological target: Serine/threonine-protein kinase Chk2 (Homo sapiens) (UniProt O96017); assay: Inhibition of CPT-11 induced Chk2 phosphorylation in human SW620 cells assessed as fold change in phosphorylated chk2 protein level at 3 nM by SDS-PAGE based Western blot analysis relative to control
[7] = biological target: T1, Serine-protein kinase ATM; assay: Inhibition of ATM phosphorylation in human SW620 cells with IR-induced DNA damage assessed as fold change in phosphorylated ATM protein level at 3 nM in the presence of 3 Gy irradiation by Western blot analysis relative to control
[8] = biological target: Serine/threonine-protein kinase Chk2 (Homo sapiens) (UniProt O96017); assay: Inhibition of CPT-11 induced Chk2 phosphorylation in human SW620 cells assessed as fold change in phosphorylated chk2 protein level at 10 nM by SDS-PAGE based Western blot analysis relative to control
[9] = biological target: T1, Serine-protein kinase ATM; assay: Inhibition of ATM phosphorylation in human SW620 cells with IR-induced DNA damage assessed as fold change in phosphorylated ATM protein level at 83 nM in the presence of 3 Gy irradiation by Western blot analysis relative to control
[10] = biological target: Serine/threonine-protein kinase Chk2 (Homo sapiens) (UniProt O96017); assay: Inhibition of Chk2 phosphorylation in human SW620 cells with IR-induced DNA damage assessed as fold change in phosphorylated Chk2 protein level at 83 nM in the presence of 1.5 Gy irradiation by Western blot analysis relative to control
[11] = biological target: Serine/threonine-protein kinase Chk2 (Homo sapiens) (UniProt O96017); assay: Inhibition of Chk2 phosphorylation in human SW620 cells with IR-induced DNA damage assessed as fold change in phosphorylated Chk2 protein level at 9 nM in the presence of 1.5 Gy irradiation by Western blot analysis relative to control
[12] = biological target: Serine/threonine-protein kinase Chk2 (Homo sapiens) (UniProt O96017); assay: Inhibition of Chk2 phosphorylation in human SW620 cells with IR-induced DNA damage assessed as fold change in phosphorylated Chk2 protein level at 250 nM in the presence of 1.5 Gy irradiation by Western blot analysis relative to control
[13] = biological target: Serine/threonine-protein kinase Chk2 (Homo sapiens) (UniProt O96017); assay: Inhibition of Chk2 phosphorylation in human SW620 cells with IR-induced DNA damage assessed as fold change in phosphorylated Chk2 protein level at 83 nM in the presence of 3 Gy irradiation by Western blot analysis relative to control
[14] = biological target: T1, Serine-protein kinase ATM; assay: Inhibition of ATM phosphorylation in human SW620 cells with IR-induced DNA damage assessed as fold change in phosphorylated ATM protein level at 250 nM in the presence of 3 Gy irradiation by Western blot analysis relative to control
[15] = biological target: Serine/threonine-protein kinase Chk2 (Homo sapiens) (UniProt O96017); assay: Inhibition of Chk2 phosphorylation in human SW620 cells with IR-induced DNA damage assessed as fold change in phosphorylated Chk2 protein level at 3 nM in the presence of 3 Gy irradiation by Western blot analysis relative to control
[16] = biological target: Serine/threonine-protein kinase Chk2 (Homo sapiens) (UniProt O96017); assay: Inhibition of Chk2 phosphorylation in human SW620 cells with IR-induced DNA damage assessed as fold change in phosphorylated Chk2 protein level at 3 nM in the presence of 1.5 Gy irradiation by Western blot analysis relative to control
[17] = biological target: Serine/threonine-protein kinase Chk2 (Homo sapiens) (UniProt O96017); assay: Inhibition of Chk2 phosphorylation in human SW620 cells with IR-induced DNA damage assessed as fold change in phosphorylated Chk2 protein level at 27 nM in the presence of 3 Gy irradiation by Western blot analysis relative to control
[18] = biological target: Serine/threonine-protein kinase Chk2 (Homo sapiens) (UniProt O96017); assay: Inhibition of CPT-11 induced Chk2 phosphorylation in human SW620 cells assessed as fold change in phosphorylated chk2 protein level at 30 nM by SDS-PAGE based Western blot analysis relative to control
[19] = biological target: Serine/threonine-protein kinase Chk2 (Homo sapiens) (UniProt O96017); assay: Inhibition of Chk2 phosphorylation in human SW620 cells with IR-induced DNA damage assessed as fold change in phosphorylated Chk2 protein level at 27 nM in the presence of 1.5 Gy irradiation by Western blot analysis relative to control

C[C@H](c1ccccc1)n1nnc2cnc3ccc(-c4ccc(OCCCN(C)C)nc4)cc3c21 gave a fold change (FC) [1] of 1.4, a fold change (FC) [2] of 2.3 and a fold change (FC) [3] of 0.75. The fold change (FC) [4] was 2, the fold change (FC) [5] was 0.77 and the fold change (FC) [6] was 1.2. For the same compound, the fold change (FC) [7] was 2.9, the fold change (FC) [8] was 0.84 and the fold change (FC) [9] was 0.59. It also gave a fold change (FC) [10] of 0.59, a fold change (FC) [11] of 1.2 and a fold change (FC) [12] of 0.59. For the same compound, the fold change (FC) [13] was 0.59, the fold change (FC) [14] was 0.81 and the fold change (FC) [15] was 3.5. The fold change (FC) [16] was 1.3, the fold change (FC) [17] was 0.79 and the fold change (FC) [18] was 0.64. For the same compound, the fold change (FC) [19] was 0.63.
